Results from patent US20260166016A1, “GPR139 RECEPTOR AGONIST, PREPARATION METHOD THEREFOR, AND APPLICATION THEREOF” (NEUBO APPTECH CO., LTD., priority 2022, published 2026).

Amino acid sequences for entries named in this document (tags omitted).
UniProt Q6DWJ6, whole entry: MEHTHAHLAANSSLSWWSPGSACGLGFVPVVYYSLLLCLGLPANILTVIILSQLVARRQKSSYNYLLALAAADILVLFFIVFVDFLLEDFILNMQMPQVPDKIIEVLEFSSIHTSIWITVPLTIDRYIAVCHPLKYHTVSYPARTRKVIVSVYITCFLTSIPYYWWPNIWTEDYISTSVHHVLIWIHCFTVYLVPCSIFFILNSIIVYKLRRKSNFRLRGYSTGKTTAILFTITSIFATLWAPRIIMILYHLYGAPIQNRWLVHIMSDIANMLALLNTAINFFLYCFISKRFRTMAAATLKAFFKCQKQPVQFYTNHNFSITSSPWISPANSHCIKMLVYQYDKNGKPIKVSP

Target: GPR139 (Homo sapiens, UniProt Q6DWJ6)
Assay: GPR139 FLIPR cell calcium signal detection in GPR139-transfected HEK293 cells
Conditions: read-out: EC50 values of compounds for GPR139, HEK293 cells transfected with GPR139
Method: HEK293 cells were grown in a 10 cm culture dish containing DMEM complete medium (containing glutamine, sodium pyruvate, penicillin/streptomycin, 10% fetal bovine serum) and incubated at 37° C. in a 5% CO2 incubator until 90% confluency. Then subculture twice a week at a ratio of 1:5. During cell passaging, the culture medium was first completely removed, washed once with 4 mL of DPBS, and then 3 mL of trypsin digestion solution was added and mixed well. When cell dissociation was observed, the trypsin solution was aspirated and 5 mL of complete DMEM medium was added. The cells were dispersed by pipetting, and 1 mL of cell suspension was added to each of five new 10 cm culture dishes. Then, 7 mL of complete DMEM medium was supplemented to each dish. After mixing, the cells were cultured at 37° C. in a 5% CO2 incubator.
On the transfection day, cells were digested and seeded into one 10 cm culture dish at appropriate density. […]
On the third day, 10 μL/well of FLIPR dye (diluted in HEPES solution containing Pluronic and Probenecid) was added to the 384-well cell plate. […] Diluted compounds were added to the cell plate and calcium signals were measured using a FLIPR plate reader.
Data were analyzed using XL-fit software to obtain EC50 values for each compound.

EC50: 100 to 1000 nM
SMILES: C[C@H](NC(=O)[C@H](CO)NC(=O)c1cccc(F)c1)c1ccccc1F
